## Ab-14 light chain CDR variants: yeast mating affinities

Target peptide (SARS-CoV-2 spike, HR2 region): PDVDLGDISGINAS

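The starting antibody came from a phage panning campaign against this peptide. AAYL50 was designed without a model: most single CDR substitutions and a random sample of double and triple ones. Affinity was read by AlphaSeq, a pooled yeast mating assay with surface-displayed partners. Mating (16 h, 30 °C) was followed by selection of diploids and sequencing of their barcodes. A regression on co-assayed BCL2-family reference pairs converts the normalised counts of each replicate to an apparent Kd. There are three technical replicates.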

Parent: Ab-14, a human scFv built as VH, the linker GGGGSGGGGSGGGGS, VL. Only the CDRs of the light chain vary.
VH: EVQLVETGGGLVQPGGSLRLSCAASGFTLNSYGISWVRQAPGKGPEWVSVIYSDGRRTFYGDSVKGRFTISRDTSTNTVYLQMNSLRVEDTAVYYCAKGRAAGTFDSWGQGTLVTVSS
VL: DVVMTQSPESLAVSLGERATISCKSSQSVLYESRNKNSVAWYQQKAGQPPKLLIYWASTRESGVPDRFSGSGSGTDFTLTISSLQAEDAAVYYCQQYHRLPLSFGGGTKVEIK

The parent's light chain CDRs are KSSQSVLYESRNKNSVA, WASTRES, QQYHRLPLS; each variant's own CDRs replace them letter for letter. This list gathers variants with a substitution at A40 (VL, numbered from residue 1). Values are log10 of the apparent Kd in nM; lower means stronger binding. The mean shown is taken over the replicates in which the pair was detected. "nd" marks a missing value. The strain was present, yet no cells mated with the target were sequenced in any replicate, which points to weak or no binding. Order: sorted from the lowest average up, undetected variants last.

KSSQSVLYESRNKNSVK | WASTRES | IQYHKLPLS: 3.11 (1 of 3 replicates).
KSSQSVLYESRNKNSVL | WASTRES | QQYHRLPLS: 3.31 (2 of 3 replicates).
KSSQSVLYESLNKNSVQ | WASTRES | QQYGRLPLS: 3.39 (1 of 3 replicates).
KSSQSVLYSSRNKNSVK | WASTRES | QQYHRLRLS: 3.51 (2 of 3 replicates).
KSSQSVLYESENKNSVM | WFSTRES | QQYHRLPLS: 3.53 (1 of 3 replicates).
KSSQSVLYEYRNKNSVS | WASTRES | QQYHRLPLS: 3.73 (1 of 3 replicates).
KSSQSPLYESRNKNSVD | WAFTRES | QQYHRLPLS: 3.78 (1 of 3 replicates).
KSSQSVLYESRNKNSVI | WASTRES | QQYHRLILS: 3.81 (1 of 3 replicates).
KSSVSVLYESRNPNSVC | WASTRES | QQYHRLPLS: 3.88 (1 of 3 replicates).
KSSQSVLYESRNKNSVM | WASTRES | QAYHRLPYS: 3.98 (2 of 3 replicates).
LSSQSVLYESRNKHSVM | WASTRES | QQYHRLPLS: 4.02 (1 of 3 replicates).
KSDQSVLYESRNKNSVW | WASTHES | QQYHRLPLS: 4.05 (1 of 3 replicates).
KVSQSVLYESRNKNSVC | WPSTRES | QQYHRLPLS: 4.15 (1 of 3 replicates).
KSSQSVLNESRNKNSVT | WASTRES | QQYHKLPLS: 4.16 (2 of 3 replicates).
KSSQSVLYESRNKNSVV | FASTRES | QQYHRLPLS: 4.16 (1 of 3 replicates).
KSSQSVLYESRNKNSVG | WASTRES | QQDHRLPLP: 4.19 (2 of 3 replicates).
KSSISVLYESRNKNSVS | WASTRES | QQDHRLPLS: 4.24 (1 of 3 replicates).
KSSQSVLYESRNKNSWF | WASTRES | QSYHRLPLS: 4.45 (1 of 3 replicates).
KSSQSVLYESRNKNSVQ | WASTFES | QQYHRFPLS: 4.57 (2 of 3 replicates).
KSSQSVLCESRNKNSVK | WASTRES | QQYHRLPLS: 4.71 (3 of 3 replicates).
KSSQSVLYESRNNNSVM | WASTRES | QQYYRLPLS: 4.95 (2 of 3 replicates).
KSSQSVLYEWRNKNSVP | WASTREI | QQYHRLPLS: 4.96 (2 of 3 replicates).
KSSQSVLYESRTKNSLC | WASTRES | QQYHRLPLS: 5.11 (2 of 3 replicates).
KSSQSVLYESRNKNSVK | WASTRES | QQYHRLPLS: 5.20 (1 of 3 replicates).
KSSQSVLYESRNKNSVT | WASTFES | KQYHRLPLS: 5.89 (1 of 3 replicates).
KSSQSVLYESRNKNSVQ | WASYRES | QQYRRLPLS: nd (0 of 3 replicates).
KSSQSVLYEWRNQNSVN | WASTRES | QQYHRLPLS: nd (0 of 3 replicates).
KSAQSVLYESRNKNSVW | WASTRES | QQYHRLPKS: nd (0 of 3 replicates).
KSSQSVLYESRNKNSVS | WAQTRES | QQYHRLPLS: nd (0 of 3 replicates).
KSSQSTLYESRNKNSVE | WASTRES | QQYHLLPLS: nd (0 of 3 replicates).
KSPQSVLYESRNKNSVH | WASTYES | QQYHRLPLS: nd (0 of 3 replicates).
KSSQSVLYESFNKNSVD | WASTRES | QSYHRLPLS: nd (0 of 3 replicates).
KSSQSVLYEPRNKNSVV | WASTRES | QQYHRWPLS: nd (0 of 3 replicates).
KSSQSVLYESRNKNSVS | WASHRES | QQYHRLILS: nd (0 of 3 replicates).
KSSQSVLYESRNKNSVE | WASTRES | TQYHRRPLS: nd (0 of 3 replicates).
KSSQSVLYETRNKNSVG | WASTRES | QQYYRLPLS: nd (0 of 3 replicates).
KSSQSVLYESRNKNSVP | WASTRES | QVYHRLPLS: nd (0 of 3 replicates).
PSSQSVLYESRNKNSVD | WAWTRES | QQYHRLPLS: nd (0 of 3 replicates).
KSSQSVLYESRNKNSVN | WASTREI | DQYHRLPLS: nd (0 of 3 replicates).
KSSQSVLYESRNKNSVS | WASTRES | QQYHRQVLS: nd (0 of 3 replicates).
KSLQSELYESRNKNSVD | WASTRES | QQYHRLPLS: nd (0 of 3 replicates).
KSSQSVLYYSRNKNSVI | WASTRAS | QQYHRLPLS: nd (0 of 3 replicates).

Parent in this assay: reference entry 0.65, copy in this library 1.68. Three control strains display no target. For library AAYL50, 18% of the pairings with them gave a signal, with a median of 4.19 and one signal in twenty below 2.99, so weak values seen in few replicates may be background.

From the AlphaSeq antibody data of Engelhart et al. 2022 (doi:10.1038/s41597-022-01779-4), copy in the FLAb collection.